Reference: ChEMBL document CHEMBL1126779, “Antagonism of 1-(2,5-dimethoxy-4-methylphenyl)-2-aminopropane stimulus with a newly identified 5-HT2- versus 5-HT1C-selective antagonist” (J Med Chem, 1993)

Molecular target: T1, 5-hydroxytryptamine receptor 2C (Rattus norvegicus, UniProt P08909)
T1 sequence (P08909 whole entry): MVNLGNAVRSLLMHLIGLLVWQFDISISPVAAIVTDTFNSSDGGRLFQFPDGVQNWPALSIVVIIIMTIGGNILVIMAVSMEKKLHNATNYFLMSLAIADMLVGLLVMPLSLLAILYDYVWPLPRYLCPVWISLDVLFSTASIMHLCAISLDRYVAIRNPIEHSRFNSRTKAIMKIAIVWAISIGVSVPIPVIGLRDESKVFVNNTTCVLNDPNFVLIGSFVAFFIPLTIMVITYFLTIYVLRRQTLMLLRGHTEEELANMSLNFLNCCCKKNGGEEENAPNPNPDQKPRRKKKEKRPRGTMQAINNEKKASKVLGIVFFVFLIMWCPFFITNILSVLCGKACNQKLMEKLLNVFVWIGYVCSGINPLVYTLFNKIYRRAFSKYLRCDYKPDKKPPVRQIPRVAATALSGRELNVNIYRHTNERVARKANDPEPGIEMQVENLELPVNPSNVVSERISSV
Assay: Tested for binding affinity against 5-hydroxytryptamine 1C receptor from rat frontal cortical regions using [3H]mesulergine as radioligand
Summary of the method: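 Rat frontal cortex homogenate (male Sprague-Dawley) was washed and preincubated 15 min at 37 °C in 50 mM Tris HCl, 0.5 mM EDTA, 10 mM MgCl2, pH 7.4, with 0.1% ascorbate and 10^-6 M pargyline. Nonspecific binding was set with 1.0 µM mianserin. Tubes ran 15 min at 37 °C in triplicate before filtration.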

## O=C(CCCN1CCC2(CC1)C(=O)NCN2c1ccccc1)c1ccc(F)cc1 [SPIPERONE]
  Ki: 1000 nM
